This is an account of results in ChEMBL document CHEMBL1157602, “Structural basis for platelet antiaggregation by angiotensin II type 1 receptor antagonist losartan (DuP-753) via glycoprotein VI” (J Med Chem, 2010).

The target in the assay is T1, Platelet glycoprotein VI (Homo sapiens, UniProt Q9HCN6).
T1 sequence (Q9HCN6 whole entry): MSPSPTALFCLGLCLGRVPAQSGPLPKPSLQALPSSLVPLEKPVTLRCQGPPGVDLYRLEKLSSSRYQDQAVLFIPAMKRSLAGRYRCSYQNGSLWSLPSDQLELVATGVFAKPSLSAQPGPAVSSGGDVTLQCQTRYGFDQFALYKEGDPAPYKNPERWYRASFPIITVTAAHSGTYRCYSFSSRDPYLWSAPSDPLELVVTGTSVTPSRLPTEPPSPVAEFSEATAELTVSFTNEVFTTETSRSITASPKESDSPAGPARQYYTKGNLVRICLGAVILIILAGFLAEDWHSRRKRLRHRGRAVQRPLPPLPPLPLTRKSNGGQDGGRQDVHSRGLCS
The experiment in a line: Binding affinity to human N-terminal Ig-like domain D1D2 GPVI expressed in Escherichia coli DH5alpha by NMR spectroscopy.

In general, Kd refers to a measure of binding affinity in units of concentration. With `CCCCc1nc(Cl)c(CO)n1Cc1ccc(-c2ccccc2-c2nn[nH]n2)cc1` [LOSARTAN], binding was put at a Kd of 170 µM.
